Assay results as given in article PMC8448983 (European journal of medicinal chemistry, 2021).

Legend:
[1] = target: human A2A adenosine receptor (Homo sapiens, UniProt P29274); experiment: biochemical; conditions: read-out: percent of inhibition, A2A AR
[2] = target: T1, human A2B adenosine receptor (Homo sapiens, UniProt P29275); experiment: biochemical; conditions: read-out: percent of inhibition, A2B AR
T1 sequence (P29275 1-332): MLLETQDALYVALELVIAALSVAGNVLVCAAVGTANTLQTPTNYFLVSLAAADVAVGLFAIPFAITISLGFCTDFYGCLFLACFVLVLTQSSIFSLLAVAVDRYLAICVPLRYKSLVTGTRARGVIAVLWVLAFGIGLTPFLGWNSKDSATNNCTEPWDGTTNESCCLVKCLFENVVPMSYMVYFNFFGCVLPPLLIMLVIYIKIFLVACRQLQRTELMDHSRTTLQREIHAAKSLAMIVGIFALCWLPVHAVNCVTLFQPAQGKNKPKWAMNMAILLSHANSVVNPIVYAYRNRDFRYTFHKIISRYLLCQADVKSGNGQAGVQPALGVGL

inhibition at 10 µM [1]: 27 ± 5%
inhibition at 10 µM [2]: 24 ± 1%
Structure (SMILES): OC[C@H]1O[C@@H](n2cnc3c(NCCCc4ccccc4)nc(Cl)nc32)[C@H](O)[C@@H]1O [Compound 24, 6-N-(3-phenylpropyl)-2-chloroadenosine]
